Test [1] concerns THP-1. In words: Cell proliferation inhibition assay (MTT). Type of test: cell-based. As to conditions: Homo sapiens, THP-1, 72 h, read-out: Proliferation inhibitory activity IC50.
In test [2] the test system is PANC-1. Nature of the test: Cell proliferation inhibition assay (MTT). Type of test: cell-based. As to conditions: Homo sapiens, PANC-1, 72 h, read-out: Proliferation inhibitory activity IC50.
Test [3] has as its system U87. Nature of the test: Cell proliferation inhibition assay (MTT). The following applies: Homo sapiens, U-87 MG, 72 h, read-out: Proliferation inhibitory activity IC50. Format: cell-based.
Test [4] relates to HepG2. Nature of the test: Cell proliferation inhibition assay (MTT). Format: cell-based. As to conditions: Homo sapiens, HepG2, 72 h, read-out: Proliferation inhibitory activity IC50.
Test [5] relates to Hela. Nature of the test: Cell proliferation inhibition assay (MTT). Type of test: cell-based. The following applies: Homo sapiens, 72 h, read-out: Proliferation inhibitory activity IC50.
In test [6] the test system is SKBR-3. Nature of the test: Cell proliferation inhibition assay (MTT). Format: cell-based. As to conditions: Homo sapiens, SK-BR-3, 72 h, read-out: Proliferation inhibitory activity IC50.
Test [7] concerns MM.1S. In words: Cell proliferation inhibition assay (MTT). Type of test: cell-based. The following applies: Homo sapiens, MM1.S, 72 h, read-out: Proliferation inhibitory activity IC50.
Test [8] deals with A2058. In words: cells. The following applies: Homo sapiens, A2058, 72 h, read-out: Proliferation inhibitory activity IC50.
In test [9] the test system is H358. Nature of the test: cells. As to conditions: Homo sapiens, NCI-H358, 72 h, read-out: Proliferation inhibitory activity IC50.
Test [10] addresses B-Raf(V599E)(h) (Homo sapiens (Human), UniProt P15056, V600E). Nature of the test: Kinase inhibition assay (KinaseProfiler, 33P-ATP). Format: biochemical. The following applies: read-out: The percentage of the remaining active protein.
Test [11] has as its target LIMK1 (Homo sapiens (Human), UniProt P53667). As to conditions: ATP at Km.
Test [12] has as its target B-Raf(V600E) (Homo sapiens (Human), UniProt P15056, V600E). In words: Kinase inhibition assay (KinaseProfiler, 33P-ATP). As to conditions: ATP at Km.
Test [13] concerns the target B-Raf (Homo sapiens (Human), UniProt P15056). In words: Kinase inhibition assay (KinaseProfiler, 33P-ATP). The following applies: ATP at Km.
For test [14], the system named is breast cancer cell line MDA-MB-231. The following applies: mouse, in vivo.

Sequences of proteins named here, by UniProt entry; tags and fusion partners are left off. A change or cut given only in a name is not applied to a line headed by its entry. Residues count along the entry.
UniProt P15056, 417-766 V600E limits assumed: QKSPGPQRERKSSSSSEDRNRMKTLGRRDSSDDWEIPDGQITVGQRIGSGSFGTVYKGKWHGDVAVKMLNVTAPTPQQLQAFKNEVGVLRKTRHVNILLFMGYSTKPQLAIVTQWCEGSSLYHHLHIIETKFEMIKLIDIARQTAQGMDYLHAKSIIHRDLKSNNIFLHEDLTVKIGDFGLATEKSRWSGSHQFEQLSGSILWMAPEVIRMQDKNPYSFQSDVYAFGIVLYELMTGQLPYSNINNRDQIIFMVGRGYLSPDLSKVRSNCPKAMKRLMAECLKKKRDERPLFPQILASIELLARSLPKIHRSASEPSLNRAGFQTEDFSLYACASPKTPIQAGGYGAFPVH
UniProt P15056, whole entry V600E: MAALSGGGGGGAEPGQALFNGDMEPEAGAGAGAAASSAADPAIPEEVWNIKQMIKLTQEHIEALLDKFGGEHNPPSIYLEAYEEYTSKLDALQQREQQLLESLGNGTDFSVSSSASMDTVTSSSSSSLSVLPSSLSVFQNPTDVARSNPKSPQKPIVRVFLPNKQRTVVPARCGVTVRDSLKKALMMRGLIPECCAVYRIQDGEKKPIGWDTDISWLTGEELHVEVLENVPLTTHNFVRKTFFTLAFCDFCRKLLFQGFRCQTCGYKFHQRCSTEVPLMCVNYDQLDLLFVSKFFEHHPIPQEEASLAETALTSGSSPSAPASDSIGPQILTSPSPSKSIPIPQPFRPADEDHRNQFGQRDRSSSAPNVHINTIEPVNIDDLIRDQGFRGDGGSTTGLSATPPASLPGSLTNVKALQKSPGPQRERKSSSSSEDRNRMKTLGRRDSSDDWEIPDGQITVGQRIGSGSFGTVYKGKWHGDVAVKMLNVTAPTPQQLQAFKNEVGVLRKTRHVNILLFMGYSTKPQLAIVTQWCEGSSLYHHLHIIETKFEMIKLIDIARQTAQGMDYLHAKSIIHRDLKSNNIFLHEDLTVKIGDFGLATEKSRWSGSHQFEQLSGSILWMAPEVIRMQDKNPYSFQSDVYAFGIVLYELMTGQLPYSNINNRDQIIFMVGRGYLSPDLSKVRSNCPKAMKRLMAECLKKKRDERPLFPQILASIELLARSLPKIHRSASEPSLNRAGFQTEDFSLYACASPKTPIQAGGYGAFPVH
UniProt P15056, whole entry: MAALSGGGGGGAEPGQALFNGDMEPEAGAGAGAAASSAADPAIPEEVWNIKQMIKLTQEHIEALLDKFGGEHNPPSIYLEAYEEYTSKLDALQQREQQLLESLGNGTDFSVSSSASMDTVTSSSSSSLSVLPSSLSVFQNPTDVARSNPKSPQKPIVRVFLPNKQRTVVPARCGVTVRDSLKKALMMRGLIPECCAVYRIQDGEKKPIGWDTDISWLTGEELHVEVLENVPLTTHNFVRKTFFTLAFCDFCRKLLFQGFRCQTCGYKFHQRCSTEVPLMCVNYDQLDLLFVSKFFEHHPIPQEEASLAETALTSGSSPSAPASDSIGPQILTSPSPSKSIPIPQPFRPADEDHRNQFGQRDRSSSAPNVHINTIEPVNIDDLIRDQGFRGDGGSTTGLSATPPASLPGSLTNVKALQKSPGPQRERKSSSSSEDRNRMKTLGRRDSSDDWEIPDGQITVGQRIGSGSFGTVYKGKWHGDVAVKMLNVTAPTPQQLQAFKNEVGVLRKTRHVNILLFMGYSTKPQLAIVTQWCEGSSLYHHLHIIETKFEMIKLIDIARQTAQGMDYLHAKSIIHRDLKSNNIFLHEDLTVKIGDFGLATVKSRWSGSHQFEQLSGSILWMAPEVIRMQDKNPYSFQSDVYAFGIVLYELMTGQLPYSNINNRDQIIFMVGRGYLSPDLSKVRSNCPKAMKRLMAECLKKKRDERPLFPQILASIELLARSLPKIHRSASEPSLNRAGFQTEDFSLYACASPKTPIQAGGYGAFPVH
UniProt P53667: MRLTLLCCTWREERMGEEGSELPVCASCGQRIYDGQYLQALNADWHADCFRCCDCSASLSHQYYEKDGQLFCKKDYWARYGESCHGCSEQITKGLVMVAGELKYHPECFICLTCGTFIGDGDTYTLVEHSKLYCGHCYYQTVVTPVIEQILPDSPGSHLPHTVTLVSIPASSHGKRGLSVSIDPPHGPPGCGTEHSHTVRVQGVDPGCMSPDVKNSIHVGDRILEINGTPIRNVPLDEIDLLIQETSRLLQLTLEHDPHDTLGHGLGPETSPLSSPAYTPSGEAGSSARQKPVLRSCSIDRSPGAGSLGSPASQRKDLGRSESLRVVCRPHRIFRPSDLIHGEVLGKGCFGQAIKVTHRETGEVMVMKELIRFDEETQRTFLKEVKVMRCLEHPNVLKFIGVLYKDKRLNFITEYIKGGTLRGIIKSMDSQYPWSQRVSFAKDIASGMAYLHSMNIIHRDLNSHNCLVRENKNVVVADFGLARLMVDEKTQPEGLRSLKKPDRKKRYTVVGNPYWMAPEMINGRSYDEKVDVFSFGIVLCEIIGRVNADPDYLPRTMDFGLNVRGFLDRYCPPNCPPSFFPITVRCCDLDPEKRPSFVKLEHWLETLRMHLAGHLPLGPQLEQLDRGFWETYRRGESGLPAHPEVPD

Take `CCn1nc(C#Cc2cc(C(=O)Nc3ccc(CN4CCN(C)CC4)c(C(F)(F)F)c3)ccc2C)c2c(N)ncnc21` [Compound 3]: the IC50 in [1] stood at 5110 nM; in [2] it was 6560 nM; in test [3], 742 nM; in test [4] it was 8670 nM; in test [5], 5410 nM; in test [6] it was 4520 nM. The results for the IC50 in test [7], in [8] and in test [9] were 872 nM, 1910 nM and 1660 nM, respectively.

In the case of `Cc1ccc(NC(=O)c2ccc(C)c(C(F)(F)F)c2)cc1C#Cc1nn([C@H]2CC[C@H](O)CC2)c2ncnc(N)c12` [Compound 93], the remaining activity at 10 µM in [10] is 14%. The IC50 was found to be 255 nM in [11], 87 nM in test [12] and 110 nM in [13].

Regarding `Cc1ccc(NC(=O)c2cccc(C(F)(F)F)c2)cc1C#Cc1nn([C@H]2CC[C@H](O)CC2)c2ncnc(N)c12` [Compound 100], in [14], the “inhibitory effect compared to positive control” value is “better than the positive control (paclitaxel and dasatinib)”; the tumor growth inhibition result is “significantly inhibit tumor growth”.

For the origin of these results see US10266537B2, “3-acetylenyl-pyrazole-pyrimidine derivative, and preparation method therefor and uses thereof” (Si Chuan University, priority 2015, dated 2019).
